# Values of other authors, collected in PMC2997321 (British Journal of Clinical Pharmacology, 2010).
# Details: rapidly metabolized by enzymes such as DPP-IV; ref [5], [15]
substance,measurement,value
glucagon-like peptide-1 [Native GLP-1],half-life (t1/2),< 2 min
